Inhibition data for three molecules are collected here from PubChem BioAssay AID651582 (Sanford-Burnham Center for Chemical Genomics, 2012).

A word on the inhibition: it is the relative decrease from the control value, in per cent.

The entries are a selection whose mix differs from that of the whole data set. The source made the active and inactive calls.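 The calls were made as follows: active = pattern-corrected inhibition of lipid staining of at least 50% with the nuclear-stain viability signal not falling by more than 50%; inactive = the rest, inconclusive results apart.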

This assay can be described thus: inhibitors of triacylglycerol accumulation, primary screen, cell-based, uHTS, fluorescence, H9c2 (AID 651582).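 Also: 0% = DMSO wells and 100% = triacsin C control wells.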 Particulars: H9c2 cells, Nile Red lipid (TAG) fluorescence; at 12.5 µM; hits give high values; cells loaded with 200 µM oleic acid.
On to `CN(C)C(=O)c1cc([N+](=O)[O-])cc2c1-c1c(cc([N+](=O)[O-])cc1[N+](=O)[O-])C2=O`, for which the inhibition was active: 80.5%. As for `CCC(C)N(CC(C)C)C(=S)SC(NC(C)=O)C(Cl)(Cl)Cl` (stereo not drawn), the inhibition is active: 106%. The same measure for `CC(=O)NC(SC(=S)N(CC(C)C)CC(C)C)C(Cl)(Cl)Cl` (stereo not drawn): active: 77.7%.
